These results are taken from US10512669B2, “Blockade of inflammatory proteases with cyclic peptides” (The Regents of the University of California, priority 2011, dated 2019).

SMILES strings stand for the structures. Bridge positions count the residues as written; N and C are the ends. Peptide text beside a SMILES is read from it.

This series deals with chimpanzees. Description: escalating i.v. doses in adult chimpanzees: toxicity and immunogenicity. To be noted: two adult chimpanzees, 3 mg/kg maximum.

For `CC[C@H](C)[C@@H]1NC(=O)[C@@H]2CSSC[C@H](NC(=O)[C@H](CCCNC(=N)N)NC(=O)[C@@H]3CSSC[C@H](NC1=O)C(=O)N[C@@H]([C@@H](C)O)C(=O)N[C@@H](CCCNC(=N)N)C(=O)NCC(=O)N[C@@H](Cc1ccccc1)C(=O)N3)C(=O)N[C@@H](CC(C)C)C(=O)N[C@H]1CSSC[C@H](NC(=O)[C@H](C(C)C)NC(=O)CNC(=O)[C@H](CCCNC(=N)N)NC(=O)[C@H](CCCNC(=N)N)NC1=O)C(=O)N[C@@H](CCCNC(=N)N)C(=O)N2` [RTD-1] (cyclo(GFCRCLCRRGVCRCICTR); disulfide 3-16, 5-14, 7-12 (inferred); ring closure inferred), the clinical toxicity result is reported as “No clinical toxicity was observed”.
